{
  "sequences": {"note": "The chains behind the UniProt entries cited, without tags or fusion partners.", "UniProt P28223, whole entry": "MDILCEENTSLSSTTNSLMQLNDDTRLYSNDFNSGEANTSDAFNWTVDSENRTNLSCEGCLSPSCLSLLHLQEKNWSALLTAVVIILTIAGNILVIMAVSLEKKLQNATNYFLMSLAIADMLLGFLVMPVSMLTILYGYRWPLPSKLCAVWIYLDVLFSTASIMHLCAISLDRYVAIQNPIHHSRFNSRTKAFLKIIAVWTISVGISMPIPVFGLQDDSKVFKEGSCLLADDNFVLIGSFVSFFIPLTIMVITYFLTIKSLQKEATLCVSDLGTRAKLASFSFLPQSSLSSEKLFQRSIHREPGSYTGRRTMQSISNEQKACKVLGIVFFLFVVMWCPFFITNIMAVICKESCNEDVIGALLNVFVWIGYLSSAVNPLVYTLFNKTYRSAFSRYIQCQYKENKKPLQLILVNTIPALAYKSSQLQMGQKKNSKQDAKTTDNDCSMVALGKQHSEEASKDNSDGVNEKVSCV"},
  "source": "patent US20240254087A1",
  "about": "“SELECTIVE, PARTIAL, AND ARRESTIN-BIASED 5-HT2A AGONISTS WITH UTILITY IN VARIOUS DISORDERS” (Saint Joseph's University, priority 2021, published 2024)",
  "biological_target": "5-HT2A (Homo sapiens, UniProt P28223)",
  "assay": "NanoLuc internalization assay",
  "settings": "60 min",
  "data": [
    {"smiles": "NCCc1c[nH]c2ccc(O)cc12", "note": "[Compound 5-HT, reference compound]", "values": [
      {"measurement": "Internalization of 5-HT2A receptors", "value": "strong internalization"}
    ]}
  ]
}
